Some of the results follow.
What was measured:
Experiment in all cases: FOREST: bead pull-down of RNA structure library v1, barcode microarray; U1A/LIN28A: 20 mM HEPES pH 7.5, 80 mM KCl, 20 mM NaCl, 10% glycerol, 2 mM DTT, 0.1 ug/uL BSA, 4 C; BG4/CIRBP/DHX36: 10 mM Tris-HCl pH 7.5, 100 mM KCl (or LiCl),; high values mean tight binding
LIN28A = target: T1, LIN28A (human?, UniProt Q9H9Z2 1-209)
T1 sequence: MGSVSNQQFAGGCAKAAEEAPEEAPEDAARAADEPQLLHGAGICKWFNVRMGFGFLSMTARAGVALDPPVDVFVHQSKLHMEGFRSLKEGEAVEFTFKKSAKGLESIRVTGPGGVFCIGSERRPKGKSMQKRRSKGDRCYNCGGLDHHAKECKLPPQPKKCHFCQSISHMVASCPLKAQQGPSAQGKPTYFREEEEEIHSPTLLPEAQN

CIRBP = target: T2, CIRBP (Homo sapiens, UniProt Q14011 1-172)
T2 sequence: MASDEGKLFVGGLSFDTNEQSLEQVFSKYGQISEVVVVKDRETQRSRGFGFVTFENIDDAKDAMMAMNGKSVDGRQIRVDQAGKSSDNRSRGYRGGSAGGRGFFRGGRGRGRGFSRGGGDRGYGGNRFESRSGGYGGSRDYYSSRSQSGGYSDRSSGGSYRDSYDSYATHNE

DHX36 = target: T3, DHX36 (Homo sapiens, UniProt Q9H2U1 1-1008)
T3 sequence: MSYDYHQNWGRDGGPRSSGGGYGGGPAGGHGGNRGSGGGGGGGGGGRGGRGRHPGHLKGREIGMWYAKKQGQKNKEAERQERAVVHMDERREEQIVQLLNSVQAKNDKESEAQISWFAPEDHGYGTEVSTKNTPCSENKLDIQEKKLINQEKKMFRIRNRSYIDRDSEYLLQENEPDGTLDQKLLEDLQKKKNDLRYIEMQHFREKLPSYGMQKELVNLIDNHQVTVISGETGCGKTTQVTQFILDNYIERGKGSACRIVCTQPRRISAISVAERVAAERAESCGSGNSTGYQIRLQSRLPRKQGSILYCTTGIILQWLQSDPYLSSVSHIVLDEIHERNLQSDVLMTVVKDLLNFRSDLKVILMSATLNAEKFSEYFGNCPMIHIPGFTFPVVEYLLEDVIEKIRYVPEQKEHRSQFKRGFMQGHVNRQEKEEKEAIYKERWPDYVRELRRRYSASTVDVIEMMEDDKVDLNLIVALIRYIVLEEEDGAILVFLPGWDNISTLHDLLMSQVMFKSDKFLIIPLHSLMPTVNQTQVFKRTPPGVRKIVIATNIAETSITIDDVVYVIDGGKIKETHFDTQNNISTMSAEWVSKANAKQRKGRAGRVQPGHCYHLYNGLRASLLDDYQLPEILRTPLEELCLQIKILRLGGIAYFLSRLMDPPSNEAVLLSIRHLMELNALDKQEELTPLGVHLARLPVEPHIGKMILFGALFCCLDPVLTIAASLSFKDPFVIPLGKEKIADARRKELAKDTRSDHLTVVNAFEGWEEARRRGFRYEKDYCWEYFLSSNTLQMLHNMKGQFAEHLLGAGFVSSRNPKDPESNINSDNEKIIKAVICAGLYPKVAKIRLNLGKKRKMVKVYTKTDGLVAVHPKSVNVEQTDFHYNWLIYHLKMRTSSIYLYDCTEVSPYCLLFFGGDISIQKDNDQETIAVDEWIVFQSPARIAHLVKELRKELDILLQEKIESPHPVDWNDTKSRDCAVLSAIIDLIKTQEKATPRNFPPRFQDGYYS

B1: hsa-mir-4479 (structured_RNA)
RNA: GGGAAGCUCAGGCAGUGGGCUAUAAGAGGGUGUACGAAGUUUCAGCGCGCGGGAAAGUUCGGGAACGCGCGGCUGAAGCUUCGUGCAC
LIN28A
  binding signal: 1.07 z-score
CIRBP
  binding signal: 0.684 z-score
DHX36
  binding signal: -0.468 z-score

B2: hsa-mir-649 (structured_RNA)
RNA: GGGAACUUUCAGGCGCUUUCAAGGUACGGGUGUACGAAGUUUCAGCGUUGAAAAAUAUCUAUGUAUUAGUAAACGCUGAAGCUUCGUGCAC
LIN28A
  binding signal: 1.11 z-score
CIRBP
  binding signal: 1.04 z-score
DHX36
  binding signal: 0.336 z-score

B3: hsa-mir-5193 (structured_RNA)
RNA: GGGACCGGAUGAAGGUCCUCGUCUAACAGGUGUACGAAGUUUCAGCGGGAGGUAAGAAGUCUCUGACUCCUGCUGAAGCUUCGUGCAC
LIN28A
  binding signal: 1.09 z-score
CIRBP
  binding signal: -0.251 z-score
DHX36
  binding signal: 0.36 z-score

B4: hsa-mir-6788 (structured_RNA)
RNA: GGGAAAGACAUCAGUUCGUCUGGGCCACGGUGUACGAAGUUUCAGCUGAAGAAGAGUAUUGAUUGUGCUGUUCGGCUGAAGCUUCGUGCAC
LIN28A
  binding signal: 1.05 z-score
CIRBP
  binding signal: 0.828 z-score
DHX36
  binding signal: -0.469 z-score

B5: hsa-mir-6782 (structured_RNA)
RNA: GGGAGAGCAUUAGUCGCACAUGAUCAUGGGUGUACGAAGUUUCAGCGGUGUCGAACUCAUGGCUGCCACCGCUGAAGCUUCGUGCAC
LIN28A
  binding signal: 1.11 z-score
CIRBP
  binding signal: 0.97 z-score
DHX36
  binding signal: 0.445 z-score

B6: hsa-mir-3617 (structured_RNA)
RNA: GGGAAAAGGCGCUCCGACUGCUUUCUAAGGUGUACGAAGUUUCAGCGAUGGGAUUAGAAACCAUAUGUCUCAUCGCUGAAGCUUCGUGCAC
LIN28A
  binding signal: 1.11 z-score
CIRBP
  binding signal: 1.58 z-score
DHX36
  binding signal: 1.2 z-score

B7: hsa-mir-4677 (structured_RNA)
RNA: GGGAAGAAUAGUUGGCGUCCCAUUUCGCGGUGUACGAAGUUUCAGCCAGCCAUGACCUGACCUUCUGUCUGGCUGAAGCUUCGUGCAC
LIN28A
  binding signal: 1.09 z-score
CIRBP
  binding signal: 2.17 z-score
DHX36
  binding signal: 0.94 z-score

B8: hsa-mir-4455 (structured_RNA)
RNA: GGGAACGUGUUCGUAUGACAGCUACUCGGGUGUACGAAGUUUCAGCUUUUCCUGAGAAUAAGAGAAGGAAGGGCUGAAGCUUCGUGCAC
LIN28A
  binding signal: 1.07 z-score
CIRBP
  binding signal: -0.0675 z-score
DHX36
  binding signal: -0.809 z-score

B9: hsa-mir-8070 (structured_RNA)
RNA: GGGAAAUUCUCGCUGACAACGGUUGCUGGGUGUACGAAGUUUCAGCCCAUGUGAGUGAAGCCUGAUCAUCAUGUGGCUGAAGCUUCGUGCAC
LIN28A
  binding signal: 1.11 z-score
CIRBP
  binding signal: 1.03 z-score
DHX36
  binding signal: -0.0559 z-score

B10: hsa-mir-3065 (structured_RNA)
RNA: GGGAACAGACCGGAGCGAACCUUUCUCCGGUGUACGAAGUUUCAGCCUGGAGUCGCCUGAGUCAUCACUCAGGCUGAAGCUUCGUGCAC
LIN28A
  binding signal: 1.08 z-score
CIRBP
  binding signal: -0.734 z-score
DHX36
  binding signal: -0.223 z-score

B11: hsa-mir-122 (structured_RNA)
RNA: GGGAACCUUACGUACGGGCGAAAUCAGAGGUGUACGAAGUUUCAGCUGUUUGUGUCUAAACUAUCAAACGGCUGAAGCUUCGUGCAC
LIN28A
  binding signal: 1.05 z-score
CIRBP
  binding signal: 1.53 z-score
DHX36
  binding signal: -0.0106 z-score

B12: hsa-mir-6779 (structured_RNA)
RNA: GGGAGGGAUGUUUAAUUGACGAGCCUAAGGUGUACGAAGUUUCAGCGUUUGGCAGGACAGUUUCCAAGCGCUGAAGCUUCGUGCAC
LIN28A
  binding signal: 1.1 z-score
CIRBP
  binding signal: 0.487 z-score
DHX36
  binding signal: -1.22 z-score

B13: hsa-mir-4495 (structured_RNA)
RNA: GGGAAAGGCAUCCCAAGGGUGUAAUCCGGGUGUACGAAGUUUCAGCUGCUCAGUGGAGUUAUUUUGAGCAGCUGAAGCUUCGUGCAC
LIN28A
  binding signal: 1.07 z-score
CIRBP
  binding signal: -0.736 z-score
DHX36
  binding signal: -0.786 z-score
